Test results published in paper PMC6539809, “Development of Oxygen-Bridged Pyrazole-Based Structures as Cannabinoid Receptor 1 Ligands” (Molecules, 2019).

By UniProt entry, the sequences of proteins in these tests, tags left out.
UniProt P47746, whole entry: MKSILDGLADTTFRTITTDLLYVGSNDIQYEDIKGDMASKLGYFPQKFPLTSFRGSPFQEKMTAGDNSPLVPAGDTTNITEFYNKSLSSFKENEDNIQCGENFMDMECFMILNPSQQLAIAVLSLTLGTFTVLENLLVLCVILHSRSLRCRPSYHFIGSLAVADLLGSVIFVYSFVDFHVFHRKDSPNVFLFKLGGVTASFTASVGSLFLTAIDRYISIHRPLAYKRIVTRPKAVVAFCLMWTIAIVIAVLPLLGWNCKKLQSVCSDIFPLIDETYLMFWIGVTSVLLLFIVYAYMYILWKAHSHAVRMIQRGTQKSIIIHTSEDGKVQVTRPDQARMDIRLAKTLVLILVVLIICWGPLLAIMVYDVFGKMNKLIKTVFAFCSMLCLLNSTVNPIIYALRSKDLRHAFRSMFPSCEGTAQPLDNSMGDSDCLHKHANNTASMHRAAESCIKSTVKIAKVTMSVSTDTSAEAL

Target: T1, CB1Rs of mouse vas deferens (Mus musculus, UniProt P47746)
T1 construct: naturally expressed prejunctional neuronal CB1Rs; from tissue; host or cells: isolated vas deferens of male albino CD1 mice
Assay: Isolated organ assay: electrically evoked contractions of mouse vas deferens
Settings: concentration of 10^−7 M; data not shown

Cc1c(C(=O)NN2CCCCC2)nn(-c2ccc(Cl)cc2Cl)c1-c1ccc(Cl)cc1 [rimonabant, N-piperidinyl-5-(4-chlorophenyl)-1-(2,4-dichlorophenyl)-4-methyl-1H-pyrazole-3-carboxamide, reference compound]
Increase in the electrically evoked responses: about 30%
